System: Vγ9Vδ2-T cells
Test: Expansion of Vγ9Vδ2-T cells from huPBMC in vitro with PAM and IL-2
Type: cell-based, human
Details: IL-2 in the absence of PAM
Experimental: The data are representative of 4 independent experiments. […] Data are representative of 4 independent experiments. […] Data are representative of 4 independent experiments.
Pamidronate-expanded Vγ9Vδ2-T cells were generated as described before (Tu et al., 2011). Briefly, huPBMC were cultured in RPMI 1640 medium supplemented with 10% FBS. Pamidronate was added at day 0 and day 3 to a final concentration 9 μg/ml. Recombinant human IL-2 (Invitrogen) was added to a final concentration of 500 UI/ml every 3 days from day 3. […] The purity of Vγ9Vδ2-T cells as determined by flow cytometry using anti-CD3 and anti-V62 mAbs, was consistently >97%.
Human PBMCs were isolated from buffy coat preparation or anticoagulated peripheral blood by Ficoll-paque (GE Health life Science) gradient centrifugation. The PBMCs were cultured in 10% FBS-RPMI1640 supplemented with 15 ul of expansion reagent A; 25 ul of expansion reagent B was added from day 3 post culture. […] Vγ9Vδ2-T cells only accounted for 1-5% (mean, 3%) in the peripheral blood PBMC from randomly selected samples (FIG. 10A). […] Data are representative for 4 independent experiments.

For IL-2: human recombinant Interleukin-2, the “expansion of Vγ9Vδ2-T cells” value was “could not induce the expansion”.

Source: patent US10532064B2, “Biophosphonate compounds and gamma delta T cell-mediated therapy for treating epstein-barr virus-associated disorders” (priority 2014, dated 2020)
